{
  "source": "patent US5679639",
  "about": "“Serine protease derived-polypeptides and anti-peptide antibodies, systems and therapeutic methods for inhibiting coagulation” (The Scripps Research Institute, dated 1997)",
  "binders": {"B1": {"name": "recombinant mutant (Arg358)-α1-antitrypsin (other)", "chain": "EDPQGDAAQKTDTSHHDQDHPTFNKITPNLAEFAFSLYRQLAHQSNSTNIFFSPVSIATAFAMLSLGTKADTHDEILEGLNFNLTEIPEAQIHEGFQELLRTLNQPDSQLQLTTGNGLFLSEGLKLVDKFLEDVKKLYHSEAFTVNFGDTEEAKKQINDYVEKGTQGKIVDLVKELDRDTVFALVNYIFFKGKWERPFEVKDTEEEDFHVDQVTTVKVPMMKRLGMFNIQHCKKLSSWVLLMKYLGNATAIFFLPDEGKLQHLENELTHDIITKFLENEDRRSASLHLPKLSITGTYDLKSVLGQLGITKVFSNGADLSGVTEEAPLKLSKAVHKAVLTIDEKGTEAAGAMFLEAIPRSIPPEVKFNKPFVFLMIEQNTKSPLFMGKVVNPTQK"}},
  "target": "activated protein C (APC) (human)",
  "assay": "cell-based or functional assay",
  "data": [
    {"binder": "B1", "values": [
      {"measurement": "half-life of APC amidolytic activity in the presence of the inhibitor", "value": 2, "unit": "min"}
    ]}
  ]
}
